# Antibody variant affinities, Ab-14 light chain, assay B

The measurements come from Li et al. 2023 (doi:10.1038/s41467-023-39022-2) through the FLAb antibody collection.

Target: peptide PDVDLGDISGINAS, taken from heptad repeat 2 (HR2) of SARS-CoV-2 spike.

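These sequences belong to a second round, designed from the earlier measurements on random variants of the parent. Several design methods are mixed in this list. The assay is AlphaSeq: two haploid yeast populations carry antibody and antigen on their surface. The frequency of each diploid, read from paired DNA barcodes, reflects how well the two displayed proteins bind. A regression on co-assayed BCL2-family reference pairs converts the normalised counts of each replicate to an apparent Kd. Mating was done six times.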

Parent: Ab-14, a human scFv built as VH, three GGGGS repeats, VL. Only the CDRs of the light chain vary.
VH: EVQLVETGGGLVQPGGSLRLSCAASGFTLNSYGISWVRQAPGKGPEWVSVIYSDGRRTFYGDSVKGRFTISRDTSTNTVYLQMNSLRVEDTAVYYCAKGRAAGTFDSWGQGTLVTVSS
VL: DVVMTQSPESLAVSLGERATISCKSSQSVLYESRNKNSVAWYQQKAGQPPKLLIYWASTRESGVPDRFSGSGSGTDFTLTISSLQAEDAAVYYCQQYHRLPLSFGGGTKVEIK

The parent's light chain CDRs are KSSQSVLYESRNKNSVA, WASTRES, QQYHRLPLS; each variant's own CDRs replace them letter for letter.
This list holds designs with at most six substitutions.
Values are log10 of the apparent Kd in nM; lower means stronger binding.
"ND" marks a missing value. The strain was present, yet no cells mated with the target were sequenced in that replicate, which points to weak or no binding.

The variant KSSMSFLYESRNKNSVA | EASTRES | QQYHRLPLS showed 0.31, 0.06, 0.17, 0.09, 0.05, 0.21. The variant KMSQSTLYESRNKSSVA | WASTRES | QQYHRLPLS showed 1.95, 1.71, 1.89, 2.65, 1.45, 1.33. With KVSQSELYESRNKNSVA | DASTRES | QQYHRLPLS the result was 0.21, -0.03, -0.02, 0.12, 0.21, 0.11. The variant KLSQFVLFESRNKNSVA | DASTHES | QQYHRGPLS gave ND, ND, ND, ND, ND, ND. For KFSQSVLYESRNTNSVA | WASTRES | QQYHRLPLS, the assay gave ND, 2.48, 2.24, 2.56, ND, 2.68. The variant KLSQQDLYESRNKNSVA | EASTRES | QQYHRLPLS showed -0.07, -0.11, -0.14, -0.30, -0.33, -0.11. For IARQSWLYESRNKNSVA | GASTRES | QQYHRLPLI, the assay gave 0.55, 0.71, 0.54, 0.56, 0.21, 0.75.

The variant KSSQSVLHYSVNKNSVA | KASTRES | QQYHRLPLS showed 1.42, 1.00, 1.43, 1.43, 1.28, 1.29. With KSDDSVLYEGRNKNSVA | WASTRES | QQYHRLPLS the result was 2.00, 1.33, 1.30, 1.19, 1.53, 1.55. With KISQSVLYESRNKNSVA | SASTRSS | QQYHRLPLS the result was -0.11, -0.11, -0.20, -0.46, -0.21, -0.19. The variant KISQSDLYDSRNKNSVA | DASTRES | QQYHRLPLS gave -0.19, -0.31, -0.39, -0.38, -0.39, -0.28. For KVLQSVVYEGRNKNSVA | HASTRED | QQYHRLPLS, the assay gave 0.67, 0.40, 0.12, 0.15, 0.69, 0.54. With KSSQSELYESRNKNSVA | EASTRLS | QQYHRLPLS the result was 0.34, 0.10, -0.05, 0.19, 0.03, 0.12. With KSSQSVLYESRNKGSVA | GASTRES | QQYHRLPLS the result was -0.16, -0.33, -0.29, -0.23, -0.32, -0.07.

The variant HSSPSQLYESRNKNSVA | NASTRES | QQYHRLPLS showed 0.51, 0.27, 0.31, 0.15, 0.24, 0.38. The variant KLSQSWLYESRNFNSVA | NASTRES | QQYHRLPLS gave 0.48, 0.54, 0.41, 0.04, 0.44, 0.66. The variant KSSQSFLYESRNKNSVA | GNSTRES | QQYHRSTLS showed ND, 2.06, ND, ND, ND, 2.00. For KVSQSGLYESRNKNSVA | HASTRES | QQYHRLPLS, the assay gave 1.06, 0.55, 0.74, 1.11, 0.65, 0.30. For KLSQSQLYESRNKNNVA | NASTRMS | QQYHRLPLS, the assay gave -0.26, -0.39, -0.36, -0.39, -0.45, -0.28. For KLSESWLYESRNKNSVA | HASTRES | QQYHRLPLS, the assay gave 0.09, -0.01, -0.33, -0.49, -0.28, -0.12. For KSMQSVLDESRNKNSVA | WASTRES | QQYRSLPLS, the assay gave 1.63, ND, 2.71, ND, ND, 2.83.

The variant KVSQSQGYESRNKNSVA | NASTRES | QQYHRLPLS gave -0.03, -0.02, -0.07, -0.22, -0.05, -0.01. With KLVMSELYESRNKNSVA | GASQRES | QQYHRLPLS the result was -0.32, -0.43, -0.15, -0.35, -0.30, -0.27. For KSSQSVLLESRNKNSVA | WASMRES | QQYHRLPLS, the assay gave 1.48, 1.63, 0.87, 2.64, 3.54, ND. The variant IAPQSWLYESRNKNSVA | GASTRES | QQYHRLPLI gave 0.12, 0.33, -0.17, 0.04, 0.09, 0.34. With KSSQSVLYESGNKNSVA | EASTRED | QQYHRLPLS the result was 1.18, 0.49, 0.50, 0.65, 0.60, 1.01. The variant KSSQSVLYTSRNKQSVA | NASTRES | QAYHRLPCS gave ND, ND, ND, ND, ND, ND. With KLMQSVLLESRNKNSVA | HASLRED | QQYHRLPLS the result was 0.68, 0.71, 1.47, 0.85, 1.04, 0.44.

The variant KLSQSELYESRNKNSVA | NASQRWS | QQYHRLPLS gave 0.48, 0.44, 0.35, 0.25, 0.64, 0.61. The variant KLSQSVLYESRNSNNVA | EASTRES | QQYHRLPLS showed -0.16, -0.16, -0.12, -0.45, -0.26, -0.14. The variant KLQQSMLYESRNKNSVA | NASQRES | QQYHRLPLS gave 0.36, 0.03, -0.04, -0.01, 0.12, 0.32. The variant KSSPSYLIESRNKNSVA | EASTRES | QQYHRLPLS gave -0.03, 0.03, 0.38, -0.14, 0.43, 0.25. With KFSQSFLYESRNKNSVA | NASTRES | QQYHRLPLS the result was 0.06, 0.10, 0.09, 0.00, -0.01, 0.04. With KSSQSVIAESRNKNSVA | EASTRES | QQYHRLPLL the result was 0.25, -0.27, -0.27, -0.12, -0.07, -0.12. The variant KLRQSTLYESRNKNSVA | NASTRCS | QQYHRLPLS showed -0.23, -0.35, -0.32, -0.29, -0.62, -0.07.

The variant KLSQQDLYESRNKNSVA | NASTRES | QQYHRLPLS showed -0.57, -0.63, -0.69, -0.64, -0.79, -0.61. For KVSQSDPYESRNKNSVA | EASTRES | QQYHRLPLS, the assay gave 0.21, 0.07, -0.13, -0.35, -0.16, -0.05. For KSSQSVLGESRNQNSVA | WAYTRES | QQYHREPLS, the assay gave ND, ND, ND, ND, ND, ND. With KVRQSELYESRNKNSVA | NASTRES | QQYHRLPLS the result was -0.12, -0.12, -0.23, -0.39, -0.24, -0.09. For KLSQSFLYESRNKNSVA | EASTREE | QQYHRLPLS, the assay gave -0.29, -0.42, -0.36, -0.53, -0.44, -0.30. The variant KSSQSELYESRNKNSVA | NASQRLS | QQYHRLPLS showed -0.02, -0.05, -0.22, -0.33, -0.05, 0.25. With KHSQAFLYESRNKNSVA | DANTRES | QQYHRLPLS the result was 0.40, 0.56, 0.16, -0.10, 0.47, 0.53.

With KSSYSVLYESVNKNNVA | RASTRES | QQYHRTPLS the result was 2.06, 1.58, 1.50, 1.42, 1.36, 2.33. The variant KFSQWVLYETRTKNSVA | NASTRES | QQYHRLPLS gave 0.26, 0.23, -0.03, 0.38, 0.27, 0.43. For KSSKSVLYESRNKNSVA | YASTRES | QQYHRLPLS, the assay gave ND, ND, ND, ND, ND, 2.52. With KVQQSDLYESRNKNSVA | EASTRES | QQYHRLPLS the result was -0.21, -0.38, -0.47, -0.57, -0.50, -0.12. With KSSQSVKVESRNKNSVA | DASTRES | QQYHRLPLS the result was -0.02, -0.01, -0.16, -0.20, -0.09, -0.12. The variant HCSQSVLMESRNKNSVA | WASTRES | QQYHRLPLS showed ND, 1.76, 0.31, 0.74, 0.87, 1.20. The variant KLSYSSLYESRNKNSVA | WASTRCS | QQHHRLPLS showed ND, ND, ND, ND, ND, ND.

The variant KSSQLVLYESRTKNSVA | WASTRES | QQHHRLPLS gave ND, ND, 1.61, ND, ND, ND.

Nonspecific signal, from three strains lacking the peptide, appeared in 4% of pairings of all light chain designs, centred on 2.64 (5% of these signals below 1.59); values are not corrected for it.
The authors averaged sequences with at least three values out of six and counted those with two or fewer as poor binders.
Values of this round are not directly comparable with the first-round values of the same sequences.
The parent sequence was in this pool as ten entries: three were never detected, three once, and four in most replicates, with averages from 0.34 to 2.37.